In PubChem BioAssay AID1347430 (National Center for Advancing Translational Sciences (NCATS), 2020):
Values joined by “and” are separate entries in the source; they are usually repeats but may differ in a detail not shown here. Equal values may be shown once. This is a selection; strong and weak results do not stand in their true shares. Active and inactive are the calls of the source. The call rests on the fitted dose curve; in most records, active means well fitted inhibition curve with a large enough effect; inconclusive means small, poorly fitted or top-dose-only effect; inactive means flat fitted curve, though single readings scatter.
Further: nearly all actives have a fitted effect of over 65% in size.
On the % scale 0 is the no-effect control and ±100 the full control effect.

These compounds were tested on Uracil-DNA glycosylase (assay: Primary qHTS assay for inhibitors of Activation Induced Cytidine Deaminase (AID): UDG Counterscreen signal). Details: FRET deamination/UDG coupled assay, UDG read, 4 h; at 115 µM (top of the series).
Excerpt: Assay Provider (PI) Patricia Gearhart Ph.D.
National Institute on Aging
National Institute of Health (NIH), Bethesda, MD
Assay Provider (PI) Rahul Kohli Ph.D.
Perelman School of Medicine
University of Pennsylvania, Philadelphia, PA
Activation-Induced Deaminase (AID) is a cytosine deaminase which converts cytosine into uracil within stretches of ssDNA. The presence of uracil in DNA initiates a cascade of mutagenic DNA repair to introduce point mutations and DNA double strand breaks. Specific targeting of AID to the immunoglobulin heavy chain loci (Igh) promotes mutagenesis in the antibody variable region for somatic hypermutation (SHM) or switch regions leading to class switch recombination (CSR). However, AID also plays a role in accumulating unnecessary mutations across the genome. Mis-targeting of AID results in the initiation of tumor development and leads to greater drug resistance among cancer cells when continually expressed. To identify an AID inhibitor, a small molecule library will be screened in collaboration with NCATS core facility at NIH. To confirm biological function, inhibitors will be examined in an in vitro murine B-cell activation assay and subsequent secondary validation screens. Top molecules will be further screened to identify inhibitory efficacy against a wild type primary splenocytes assay. Using these approaches, we hope to identify a small molecule with great efficacy and low toxicity for use as a molecular probe to further characterize AID's intricacies, or even as a therapeutic.
A FRET based analysis of cytosine deamination, was developed to identify potential inhibitors of AID catalytic activity. This screen has two signal output, Read 1 evaluates the AID inhibition response. The second readout (Read 2) evaluates UDG response and is uses as a counterscreen to exclude false positive inhibitors. Inhibition in AID and inactivity in the UDG signal is the desired outcome for this assay.
SEQUENCE No. (e.g., 1, 2, 3, etc.); […] (e.g., Cells, Incubation, Reagent, etc.); VALUE; DESCRIPTION
1a; Reagent; 3 uL; [4/3x] 1 uM AID/2.67 U/mL UDG
1b; Reagent; 3 uL; 2 U/mL UDG
1c; Reagent; 3 uL; 1 uM AID
2a; Compound; 46 nL; Follow-up plates (0.64 uM - 10 mM)
2b; Control; 46 nL; ATA ([…] - 10 mM)
3; Time; 10 min; incubation at room temperature
5; Time; 4 hr; incubation at room temperature
6; Reagent; 4 uL; [2x] 250 mM NaOH
7; Time; 15 sec; centrifuge at 1000 rpm
8; Time; 30 min; incubation at room temperature
9a; Detection; fluorescence (Read 1: AID); EnVision (PerkinElmer) plate reader, 540 excitation and 590 emission filters
9b; Detection; fluorescence (Read 2: UDG); EnVision (PerkinElmer) plate reader, 560 excitation and 665 emission filters
NOTES (numbers refer to sequence above)
1a; Reagents were dispensed in a medium-binding black solid-bottom Greiner plates (789176F) using a BioRptr liquid dispenser. Dispense 3 uL of [4/3x] 1 uM AID (provided by Kohli lab) and [4/3x] 2 U/mL UDG (NEB M0280L) into columns 1, 2, 5 to 48.
1b; Dispense 3 uL of [4/3x] 2 U/mL UDG into column 3.
1c; Dispense 3 uL of [4/3x] 1 uM AID into column 4.
2a; Compound (7-points [uM] (0.64; 3.2; 16; 80; 400; 2,000; 10,000; 20,000) double pin-transferred (Dip Factor = 2) using the Kalypsys (Wako USA) pintool equipped with a 1536 pinhead for a final concentration range of 7.32 nM - 114 uM.
2b; 10 mM Aurintricarboxylic Acid (Sigma A1895) (ATA, 8-point, n = 2, 1:2.5 dilution in column 2) double pin-transferred (Dip Factor = 2) using the Kalypsys (Wako USA) pintool equipped with a 1536 pinhead for a [final] range of 186 nM - 114 uM.
3; Room temperature incubation.
4; Dispense 1 uL of substrate mixture from the Kohli lab [4x] […] DJC20 and [4x] 250 nM DJC23 into columns 1 to 48 .
5; Room temperature incubation.
6; Dispense 4 uL of substrate mixture [2x] 250 mM NaOH into columns 1 to 48.
7; Centrifugation step to remove bubbles.
8; Room temperature incubation
9a; Fluorescence signal (column label AID) was read using the EnVision plate reader. […]
With CN(CCCl)Cc1cc(Cl)c(NC2=NCCN2)c(Cl)c1 the activity change, negative = inhibition was inactive: 7.7%.
For ClCCNC1C2CC3CC(C2)CC1C3 (stereo not drawn), the activity change, negative = inhibition was inactive: -10.6%.
In the case of Fc1ccc(NC2=NCC(CI)S2)c(F)c1 (stereo not drawn), the activity change, negative = inhibition is reported as inactive: 5.99%.
For BrCC1CN=C(Nc2ccccc2)S1 (stereo not drawn), the activity change, negative = inhibition was inactive: -1.03%.
In the case of CN(C(=O)Cc1ccc(Cl)c(Cl)c1)[C@@H]1CC[C@]2(CCCO2)C[C@H]1N1CCCC1, the activity change, negative = inhibition is reported as inactive: -7.91%.
With NNc1ccc([N+](=O)[O-])cc1[N+](=O)[O-] the activity change, negative = inhibition was inactive: -21.4%.
With Cc1ccc(C(=O)NC(Sc2ccc(Cl)cc2)C(Cl)(Cl)Cl)cc1 (stereo not drawn) the activity change, negative = inhibition was inactive: -2.54%.
CN(C(=O)Cc1ccccc1)[C@@H]1CC[C@]2(CCCO2)C[C@H]1N1CCCC1 was tested, and the activity change, negative = inhibition was inactive: -4.33%.
For Cc1ccc(C(=O)NC(Sc2ccccc2)C(Cl)(Cl)Cl)cc1 (stereo not drawn), the activity change, negative = inhibition was inactive: -2.27%.
Fc1ccc(CNC2=NCC(CBr)S2)cc1 (stereo not drawn) was tested, and the activity change, negative = inhibition was inactive: -1.62%.
In the case of O=C(NC(Sc1ccccc1)C(Cl)(Cl)Cl)c1ccc(Cl)cc1 (stereo not drawn), the activity change, negative = inhibition is reported as inactive: 2.72%.
In the case of O=C(NC(Sc1ccc(Cl)cc1)C(Cl)(Cl)Cl)c1ccccc1 (stereo not drawn), the activity change, negative = inhibition is reported as inactive: 1.5%.
In the case of Cc1cccc(C(=O)NC(Sc2ccccc2)C(Cl)(Cl)Cl)c1 (stereo not drawn), the activity change, negative = inhibition is reported as inactive: 1.71%.
For Clc1cccc(NC2=NCC(CBr)S2)c1 (stereo not drawn), the activity change, negative = inhibition was inactive: 1.16%.
For O=C(/C=C/c1ccccc1)NC(Sc1ccc(Cl)cc1)C(Cl)(Cl)Cl (stereo not drawn), the activity change, negative = inhibition was inactive: -11.6%.
CN(C(=O)Cc1ccc(Cl)c(Cl)c1)[C@H]1CCCC[C@@H]1N1CCCC1 was tested, and the activity change, negative = inhibition was inactive: 4.33% and inactive: -1.1%.
For BrCCNCCc1ccncc1, the activity change, negative = inhibition was inactive: -1.37%.
For CN(C(=O)Cc1ccc(Cl)c(Cl)c1)[C@@H]1CCCC[C@@H]1N1CCCC1, the activity change, negative = inhibition was inactive: -4.42%.
